# Reported properties for industrial, environmental and drug-like chemicals

Values as listed in the OPERA 2.9 repository of K. Mansouri.

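The OPERA project collected these measurements from public sources as training and test data for property models. A listed value is a point estimate from one report or more. Conditions of the individual experiments are not part of the data. The measured form (salt, isomer or mixture) is not always the one drawn. Some upstream entries may be estimates or bounds without being marked so.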

Melting points are in °C.
Boiling points are in °C, nominally at 760 mmHg.
logP is the log10 of the octanol-water partition coefficient; higher is more lipophilic.
Water solubility is log10 of mol/L, nominally at 25 °C; higher is more soluble.
Vapor pressures (log10 mmHg) refer to near room temperature, 15 to 30 °C; higher is more volatile.
Henry's law constant (air-water partitioning) is log10 of atm·m3/mol, nominally at 25 °C.
The unbound fraction in human plasma runs from 0 (all bound) to 1 (all free).
Intrinsic clearance (human, µL/min per 10^6 hepatocytes): higher is faster turnover, and 0 stands for none detected.
"n/a" marks a cell with nothing listed here.

- CC(=O)OC(c1ccccc1)C(Cl)(Cl)Cl (configuration not stated): bp 260 °C; log Kow 3.518; log solubility -3.852 (log10 mol/L)
- C1=CC2C3C=CC(C3)C2C1 (configuration not stated): log Kow 2.78; log solubility -3.699 (log10 mol/L); log H -1.201 (log10 atm·m3/mol)
- O=S1(=O)OCCO1: log Kow -0.04; log vapor pressure -2.03 (log10 mmHg)
- CC(=O)c1cc(C(C)(C)C)cc2c1CCC2(C)C: log solubility -4.871 (log10 mol/L); log vapor pressure -3.627 (log10 mmHg)
- ClC(Cl)=Nc1ccccc1: melting point 19.5 °C; bp 210 °C
- CN(C)CCC#N: log Kow -0.45; log vapor pressure -0.046 (log10 mmHg)
- C=CCl: log Kow 1.46; log solubility -1.105 (log10 mol/L); fu 0.5925; Clint 29.17 µL/min/10^6 cells
- COc1ccc(C=O)cc1O: log solubility -1.826 (log10 mol/L); log vapor pressure -4.334 (log10 mmHg)
- CCCOC/C(=Nc1ccc(Cl)cc1C(F)(F)F)/[n]1c[n]cc1: fu 0.005445; Clint 19.6 µL/min/10^6 cells
- CCC(C)(C)c1ccc(O)c(C(C)(C)CC)c1: log solubility -4.893 (log10 mol/L); log vapor pressure -1.426 (log10 mmHg)
- ClC1=C(Cl)[C@]2(Cl)[C@H]3[C@H]([C@@H]4C=C[C@H]3C4)[C@@]1(Cl)C2(Cl)Cl: fu 0.0134; Clint 0 µL/min/10^6 cells
- Cl/C=C/C[N+]12CN3CN(CN(C3)C1)C2.[Cl-]: log Kow -0.1; log vapor pressure -7 (log10 mmHg)
- COC(=O)c1ccccc1S(=O)(=O)NC(=O)Nc1nc(C)nc(OC)n1: log solubility -1.87 (log10 mol/L); log vapor pressure -11.6 (log10 mmHg); fu 0.08667
- C[C@@]12CC[C@@H]3[C@H](CCC4=CC(=O)C=C[C@]43C)[C@H]1CCC2=O: log Kow 2.2; log solubility -2.82 (log10 mol/L); log vapor pressure -8.949 (log10 mmHg)
- CC(C)(OO)c1ccccc1: bp 140.1 °C; log Kow 1.88
- FC(F)(F)I: log Kow 2.41; log solubility -2.072 (log10 mol/L)
- N#C/C=C/c1ccccc1: log solubility -2.083 (log10 mol/L); log vapor pressure -2.046 (log10 mmHg)
- CC(C)(C)OOC(C)(C)C#CC(C)(C)OOC(C)(C)C: log solubility -5.115 (log10 mol/L); log vapor pressure -4.089 (log10 mmHg)
- Cc1cc(C)nc(Nc2ccccc2)n1: log H -7.449 (log10 atm·m3/mol); fu 0.01746; Clint 43.89 µL/min/10^6 cells
- CCCCOC(=O)CCP1(=O)Oc2ccccc2-c2ccccc21 (configuration not stated): log Kow 3.323; log vapor pressure -8.989 (log10 mmHg)
- CCN(C(C)=O)c1cccc(-c2ccnc3c(C#N)cnn23)c1: log solubility -3.879 (log10 mol/L); Clint 2.843 µL/min/10^6 cells
- Oc1cc(Cl)ccc1Oc1ccc(Cl)cc1Cl: log vapor pressure -5.28 (log10 mmHg); fu 0.00339
- CC(C)=CC1C(C(=O)OC(C#N)c2cccc(Oc3ccccc3)c2)C1(C)C (configuration not stated): log Kow 6.29; log solubility -7.57 (log10 mol/L); log vapor pressure -6.046 (log10 mmHg)
- CS(=O)(=O)O.NC(=O)[C@@H]1C[C@@H]2C[C@@H]2N1: melting point 194.5 °C; log vapor pressure -8.253 (log10 mmHg)
- CCCCC(O)(Cn1cncn1)c1ccc(Cl)cc1Cl (configuration not stated): log H -8.483 (log10 atm·m3/mol); fu 0.04083; Clint 16.22 µL/min/10^6 cells
- Clc1cccc(-c2cc(Cl)ccc2Cl)c1: melting point 40 °C; log vapor pressure -3.575 (log10 mmHg)
- Nc1ccc(Cl)cc1O: melting point 153 °C; log solubility -2.391 (log10 mol/L); log vapor pressure -4.824 (log10 mmHg)
- C[C@@H]1O[C@@H](O[C@@H]2C=C3CC[C@@H]4[C@H](CC[C@]5(C)[C@@H](c6ccc(=O)oc6)CC[C@]45O)[C@@]3(C)CC2)[C@H](O)[C@H](O)[C@H]1O: log solubility -3.955 (log10 mol/L); fu 0.15
- CCOC(=O)c1cn2nc(OP(=S)(OCC)OCC)cc2nc1C: log vapor pressure -5.783 (log10 mmHg); log H -8.594 (log10 atm·m3/mol)
- NP(N)(=O)Nc1ccccc1[N+](=O)[O-]: log Kow 0.51; log solubility -2.19 (log10 mol/L); log vapor pressure -7.316 (log10 mmHg)
- CC(C)Oc1cccc(NC(=O)c2ccccc2C(F)(F)F)c1: log H -9.788 (log10 atm·m3/mol); Clint 14.17 µL/min/10^6 cells
- Clc1ccc2oc3ccc(Cl)cc3c2c1: melting point 184 °C; log vapor pressure -5.533 (log10 mmHg)
- O=C(OOC(=O)c1ccc(Cl)cc1Cl)c1ccc(Cl)cc1Cl: log solubility -8.279 (log10 mol/L); log vapor pressure -4.171 (log10 mmHg)
- C[C@]12CC[C@H](O)CC1=C[C@@H](O)[C@H]1[C@@H]3[C@@H](O)CC(=O)[C@@]3(C)CC[C@@H]12: log Kow 0.97; log solubility -3.033 (log10 mol/L)
- CCOC(=O)COc1cc(-c2nn(C)c(OC(F)F)c2Cl)c(F)cc1Cl: log solubility -6.699 (log10 mol/L); log vapor pressure -10.21 (log10 mmHg); log H -9.663 (log10 atm·m3/mol); fu 0.435; Clint 71.6 µL/min/10^6 cells

The last 5 entries again:

| SMILES | melting point (°C) | bp (°C) | log Kow | log solubility (log10 mol/L) | log vapor pressure (log10 mmHg) | log H (log10 atm·m3/mol) | fu | Clint (µL/min/10^6 cells) |
|---|---|---|---|---|---|---|---|---|
| CC(C)Oc1cccc(NC(=O)c2ccccc2C(F)(F)F)c1 | n/a | n/a | n/a | n/a | n/a | -9.788 | n/a | 14.17 |
| Clc1ccc2oc3ccc(Cl)cc3c2c1 | 184 | n/a | n/a | n/a | -5.533 | n/a | n/a | n/a |
| O=C(OOC(=O)c1ccc(Cl)cc1Cl)c1ccc(Cl)cc1Cl | n/a | n/a | n/a | -8.279 | -4.171 | n/a | n/a | n/a |
| C[C@]12CC[C@H](O)CC1=C[C@@H](O)[C@H]1[C@@H]3[C@@H](O)CC(=O)[C@@]3(C)CC[C@@H]12 | n/a | n/a | 0.97 | -3.033 | n/a | n/a | n/a | n/a |
| CCOC(=O)COc1cc(-c2nn(C)c(OC(F)F)c2Cl)c(F)cc1Cl | n/a | n/a | n/a | -6.699 | -10.21 | -9.663 | 0.435 | 71.6 |